From PMC2481281

Sequences of proteins named here, by UniProt entry; tags and fusion partners are left off. Residues count along the entry.
UniProt P48061, 22-89: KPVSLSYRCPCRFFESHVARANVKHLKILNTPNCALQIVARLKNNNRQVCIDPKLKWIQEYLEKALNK

Target: CXCL12α protein, chemically synthesized (α-wt) (UniProt P48061)
Experiment: SDS-PAGE and immunoblot; chemically synthesized chemokines separated by SDS-PAGE and probed with the K15C mAb; dimeric forms seen

“CXCL12α protein, chemically synthesized (α-wt) (from UniProt P48061-2 22-89) (ligand; other documents disagree on this pair)” was tested. Which stoichiometry N did it give?
The stoichiometry N was 2.
